The results in this text go back to publication PMC2844127 (Journal of medicinal chemistry, 2010).

Protein sequences, listed by entry. Tags and fused reporters are not part of them.
UniProt P19020, whole entry: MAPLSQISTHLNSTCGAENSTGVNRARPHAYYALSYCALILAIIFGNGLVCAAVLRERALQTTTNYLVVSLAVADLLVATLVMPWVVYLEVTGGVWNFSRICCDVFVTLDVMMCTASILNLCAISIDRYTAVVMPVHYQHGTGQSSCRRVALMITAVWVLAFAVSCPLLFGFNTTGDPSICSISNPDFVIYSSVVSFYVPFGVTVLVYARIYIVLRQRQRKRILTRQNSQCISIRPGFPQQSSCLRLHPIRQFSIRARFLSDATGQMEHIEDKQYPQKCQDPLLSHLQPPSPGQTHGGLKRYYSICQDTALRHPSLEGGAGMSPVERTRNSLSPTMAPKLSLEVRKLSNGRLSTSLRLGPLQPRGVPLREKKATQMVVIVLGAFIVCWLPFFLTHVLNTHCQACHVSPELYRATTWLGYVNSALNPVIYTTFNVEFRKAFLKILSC

The target of this assay is dopamine rD3 receptor (Rattus norvegicus, UniProt P19020). Conditions: ratio of Ki D2L to Ki D3.

Turning to `CCCN(CCC)C1CCc2c(O)cccc2C1` (single isomer, unassigned; (-)) [(−)-5-OH-DPAT, 5-Hydroxy-2-(dipropylamino)tetralin], the D2L/D3 is recorded as 43.2.
